Reference: patent US20050096360A1, “Inhibitors of semicarbazide-sensitive amine oxidase (SSAO) and VAP-1 mediated adhesion useful for treatment of diseases” (priority 2003, published 2005)

Test system: oxazolone-induced colitis in SJL/J mice
Conditions: 10 mg/kg i.p. twice a day from day 6
Procedure: Oxazolone colitis is induced as described (Fuss I. J. et al. (2002) J. Immunol. 168: 900). Briefly, mice are pre-sensitized by skin epicutaneous application of 3% oxazolone (4-ethoxymethylene-2-phenyl-2oxazolin-5-one, Sigma) in 100% EtOH (150 μl) on day 0, followed by intrarectal administration of 1% oxazolone in 50% EtOH (100 μl) to anesthetized SJL/J male mice on day 5 through a 3.5 F catheter inserted 4 cm proximal to the anal verge. Mice are divided in three treatment groups and injected i.p. twice a day with: PBS and a compound of the invention. Injections are initiated at day 0 and are continued through day 7 or the end of the study.
A study was carried out using the protocol in Example 20 for oxazolone-induced colitis. Injections were initiated at day 0 and were continued through the end of the study. Disease progression was evaluated for 12 days (6 days after intrarectal administration) by monitoring survival rates and body weight, as well as by macroscopic evidence of colitis (i.e. rectal prolapse, colon size, colon weight). […] Kaplan-Meyer survival curves and unpaired t tests were calculated using GraphPad Prism software (San Diego, Calif.).
Thus, animals from a similar study were sacrificed seven days after initial sensitization and their colons removed and fixed in 1% formalin. […] Kaplan-Meyer survival curves were calculated using GraphPad Prism software (San Diego, Calif.).

With C=C(CNN)c1ccccc1 [Example 2, Hydrochloride] the “survival, administration after disease onset” value was “significant impact”.

Counter-ions that a name gives are not always drawn.
